These results are taken from PubChem BioAssay AID1467 (National Center for Advancing Translational Sciences (NCATS), 2008).

By UniProt entry, the sequences of proteins in these tests, tags left out.
UniProt P06280, whole entry: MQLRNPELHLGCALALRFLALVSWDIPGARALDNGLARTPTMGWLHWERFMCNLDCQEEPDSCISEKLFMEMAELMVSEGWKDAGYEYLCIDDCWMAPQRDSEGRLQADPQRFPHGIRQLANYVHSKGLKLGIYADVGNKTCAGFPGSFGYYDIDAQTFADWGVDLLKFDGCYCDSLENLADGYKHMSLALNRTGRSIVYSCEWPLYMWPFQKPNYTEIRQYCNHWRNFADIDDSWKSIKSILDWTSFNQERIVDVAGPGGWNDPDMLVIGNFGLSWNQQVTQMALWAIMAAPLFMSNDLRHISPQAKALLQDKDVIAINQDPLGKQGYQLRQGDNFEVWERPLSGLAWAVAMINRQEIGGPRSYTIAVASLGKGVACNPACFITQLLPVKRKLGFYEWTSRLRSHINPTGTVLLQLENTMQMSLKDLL

This is a selection; strong and weak results do not stand in their true shares. Calls of active or inactive are those of the source. The call rests on the fitted dose curve; in most records, active means well fitted curve in the direction sought with a large enough effect; inconclusive means small, poorly fitted or top-dose-only effect, or effect the other way, or another doubt; inactive means no such curve, though single readings can be large or run the other way.

The test has as its target Alpha-galactosidase A (Homo sapiens) (UniProt P06280). The experiment in a line: qHTS Assay for Inhibitors of Human alpha-Galactosidase at pH 4.5.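 Further: 0% = full activity with enzyme and -100% = basal without enzyme.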 Particulars: purified enzyme, 4-MU-alpha-Gal fluorescence; at 105 µM (top of the series) unless noted. An excerpt: NIH Chemical Genomics Center [NCGC]
NIH Molecular Libraries Probe Production centers Network [MLPCN]
Assay Submitter (PI): Wei Zheng
Alpha-galactosidase is a homodimeric glycoprotein that hydrolyzes the terminal alpha-galactosyl moieties from glycolipids and glycoproteins. Deficiency of this enzyme results in Fabry Disease with progressive accumulation of globotriaosylceramide and other glycosphingolipids in vascular endothelial cells that causes renal failure, myocardial infarction and stroke, and premature death in patients. It has been reported that the improper folding and trafficking of alpha-galactosidase resulting from the genetic mutations may account for a significant numbers of Fabry patients. […] We optimized this alpha-galactosidase assay in 1536-well plate format for identifying the novel small molecule inhibitors with the structures other than the sugar analogs in order to develop the new pharmacological chaperones. Although this assay has the same protocol as PubChem AID 992, this is a separate project and, therefore, is published as a separate assay
NCGC Assay Protocol Summary:
This is a fluorogenic enzyme assay with 4-Methylumbelliferyl alpha-D-galactopyranoside as the substrate and human […] as the enzyme preparation. Upon the hydrolysis of this fluorogenic substrate, the resulting product, […]. 4-Methyllumbelliferone, can be excited at 365 nm and emits at 440 nm. This fluorescence which can be detected by a standard fluorescence plate reader. Data were normalized to the controls for basal activity (without enzyme) and 100% activity (with enzyme). In the AC50 values were determined from concentration-response data modeled with the standard Hill equation.
Assay buffer: 50 mM citric acid (titrated with potassium phosphate to pH 4.5), 0.005% Tween-20, pH 4.5. (pH 4.5 is an optimal condition for this enzyme assay)
1536-well assay protocol for the human alpha-galactosidase:
(1) Add 2 ul/well of enzyme (12 nM final)
(2) Add 23 nL compounds in DMSO solution. The final titration was 0.7 nM to 77 uM.
(3) Add 1 ul of substrate (400 uM final)
(4) Incubate at room temperature for 20 min.
(5) Add 2 ul stop solution (1M NaOH and 1M Glycine mixture, pH 10)
(6) Detect the assay plate in a ViewLux plate reader (PerkinElmer) with Ex=365 nm and Em=440nm.
Keywords: MLSMR, MLPCN, NIH Roadmap, qHTS, NCGC, : Alpha-galactosidase, Fabry Disease, pharmacological chaperone, chaperone therapy
(Quantitative high-throughput screening tests each substance at several concentrations.)
For the molecule `O=[N+]([O-])c1ncn(CCn2ncnc2[N+](=O)[O-])n1`, the activity change, negative = inhibition is inactive: -14.5%. As to `CC(C)(C)C(=O)NC(Sc1ccncn1)C(Cl)(Cl)Cl` (stereo not drawn), the activity change, negative = inhibition is inactive: -29.2%. With `COc1ccc(NP(C)(=O)Oc2ccccc2OC)cc1` (stereo not drawn), the activity change, negative = inhibition was inactive: 7.24%.

Take `C[C@H]1OP(=O)(Oc2ccccc2)[C@H](O)[C@H](O)[C@H]1N=[N+]=[N-]` (stereo partly drawn): the activity change, negative = inhibition is inactive: -4.93%.

With `O=P(Nc1nc2ccccc2s1)(c1ccccc1)c1ccccc1`, the activity change, negative = inhibition was inactive: 4.14%. Consider `CN(C)CCOC(=O)C(O)(c1ccccc1)C1CCCCC1` (stereo not drawn), for which the activity change, negative = inhibition is inactive: 1.96%.

`O=P(Nc1ccccn1)(c1ccc(Br)cc1)c1ccc(Br)cc1`: the activity change, negative = inhibition was inactive: -12.5%. In the case of `COc1ccc(OP(C)(=O)Nc2cccc(Br)c2)cc1` (stereo not drawn), the activity change, negative = inhibition is inactive: -1.22%. As to `O=C(OC1CN2CCC1CC2)c1cccc(Cl)c1` (stereo not drawn), the activity change, negative = inhibition is inactive: -2.52%. As to `C(Cc1nn[nH]n1)Cc1nn[nH]n1`, the activity change, negative = inhibition is inactive: 10.1%. For `Nc1ccc([As](=O)(O)c2ccc([N+](=O)[O-])cc2)cc1`, the activity change, negative = inhibition is inactive: 2.07%.

With `Cc1cc(-c2cccc3ccccc23)c(C)cn1.O=[N+]([O-])c1cc([N+](=O)[O-])c(O)c([N+](=O)[O-])c1`, the activity change, negative = inhibition is inactive: -2.74%. For `O=[As](O)(c1ccccc1)c1ccc(O)cc1`, the activity change, negative = inhibition is inactive: 6.86%.

Take `O=[N+]([O-])c1ccc(OP2(=O)COCCO2)cc1` (stereo not drawn): the activity change, negative = inhibition is inactive: -4.2%. With `CC(=O)NC(SC(=S)N(C)C)C(Cl)(Cl)Cl` (stereo not drawn), the activity change, negative = inhibition was inactive: 9.87%. `O=[N+]([O-])c1ncn(CCn2cnc([N+](=O)[O-])n2)n1`: the activity change, negative = inhibition was inactive: 6.56%. For `c1nnnn1CCn1cnnn1`, the activity change, negative = inhibition was inactive: 1.02%. On to `CCOP(C)(=S)SCC(=O)NC(C)(CC)C(=O)O` (stereo not drawn), for which the activity change, negative = inhibition is inactive: -9.61%. In the case of `O=P(Nc1nccs1)(c1ccccc1)c1ccccc1`, the activity change, negative = inhibition is inactive: 4.86%. For the molecule `CC(C)C(=O)NC(Sc1ccccc1)C(Cl)(Cl)Cl` (stereo not drawn), the activity change, negative = inhibition was inactive: 0.935%.

Take `CP(=O)(Nc1ccc(SC(F)(F)F)cc1)Oc1ccc(F)cc1` (stereo not drawn): the activity change, negative = inhibition is inactive: -7.45%. `Cc1ccccc1NP(C)(=O)Nc1ccccc1C`: the activity change, negative = inhibition is inactive: 2.72%. As for `CCN(CCCl)Cc1ccccc1C`, the activity change, negative = inhibition is inactive: -3.74%. As for `CP(=O)(Nc1ccc2c(c1)OCCO2)Oc1ccccc1` (stereo not drawn), the activity change, negative = inhibition is inactive: 2.83%.

Turning to `CC(C)(C)C(=O)NC(Sc1ccccc1)C(Cl)(Cl)Cl` (stereo not drawn), the activity change, negative = inhibition is inactive: -0.77% [at 21.1 µM]. In the case of `CP(=O)(Nc1ccccc1F)Oc1ccccc1` (stereo not drawn) it was inactive: -11.8%; in that of `CCOc1ccc(C2=NCC(CBr)S2)cc1` (stereo not drawn), inactive: 10.6%; in that of `O=P1(Nc2nc3ccc(Cl)cc3s2)COc2ccccc2O1` (stereo not drawn), inactive: 4.69%.

As for `CC(=O)Nc1ccc(Oc2c([N+](=O)[O-])cc([N+](=O)[O-])cc2[N+](=O)[O-])cc1`, the activity change, negative = inhibition is inactive: -11.7%. Under `CC(=O)Nc1ccc([As](=O)(O)O)c(O)c1` stands inactive: -2.52%; under `C[C@H]1OP(=O)(Oc2ccccc2)C[C@@H]2O[C@@H]21` (stereo partly drawn), inactive: 6.98%.

`C[C@@H]1C=CCP(=O)(Oc2ccccc2)O1` (stereo partly drawn): the activity change, negative = inhibition is inactive: -1.22%. In the case of `O=C(OCCN1CCN(CCOCc2ccccc2)CC1)C(O)(c1ccccc1)c1ccccc1` it was inactive: 1.51%; in that of `COc1ccc(OP(C)(=O)Nc2ccc(SC(F)(F)F)cc2)cc1` (stereo not drawn), inactive: -25.9%. As to `CCOC(=O)c1ccc(NP(C)(=O)Oc2ccc(F)cc2)cc1` (stereo not drawn), the activity change, negative = inhibition is inactive: 12.4%. Under `Cc1ccc(NP(=O)(Oc2cccc(C)c2)Oc2cccc(C)c2)nc1` stands inactive: -3.68%. `CCOC(=O)NC(Sc1ccccc1)C(Cl)(Cl)Cl` (stereo not drawn): the activity change, negative = inhibition is inactive: 6.61%. Take `c1ccc(-c2nn[nH]n2)c(-c2nn[nH]n2)c1`: the activity change, negative = inhibition was inactive: -2.41%. Under `O=C(NC1CCS(=O)(=O)C1)NP(=S)(Oc1ccccc1)Oc1ccccc1` (stereo not drawn) stands inactive: 0.246%; under `CCNC(=S)/N=C(\N)N[N+](=O)[O-]`, inactive: 8.25%; under `O=c1c2cc([N+](=O)[O-])ccc2[nH]c2c([N+](=O)[O-])cc([N+](=O)[O-])cc12`, inactive: -5.33%.

Consider `CN(C)C(=O)Oc1noc2ccccc12`, for which the activity change, negative = inhibition is inactive: -5.71%. On to `Cc1ccccc1OP(=O)(Nc1ccccn1)Oc1ccccc1C`, for which the activity change, negative = inhibition was inactive: -3.52%. In the case of `CP(=O)(Nc1ccccc1)Oc1ccc(F)cc1` (stereo not drawn) it was inactive: 5.5%; in that of `CCC(=O)N1C2C3N(C(=O)CC)C1C1N(C(=O)CC)C(C(N1C(=O)CC)N3C(=O)CC)N2C(=O)CC`, inactive: 1.23%. In the case of `CCN(CC)CCCOC(=O)C(O)(c1ccccc1)C1CCCCC1` (stereo not drawn) it was inactive: -10.6%; in that of `CN(C(=O)Cc1ccc(Cl)c(Cl)c1)[C@@H]1CCCC[C@@H]1N1CCCC1`, inactive: -2.39%; in that of `CC(=O)NC(SC(=S)N(CC(C)C)CC(C)C)C(Cl)(Cl)Cl` (stereo not drawn), inactive: 4.9%.
